## scFv variants of Ab-95 (light chain) against a SARS-CoV-2 spike peptide

Binding partner: SARS-CoV-2 spike HR2 peptide, sequence PDVDLGDISGINAS.

Each scFv is VH, a 15-residue (Gly4Ser)3 linker, VL, as in the parent Ab-95, and differs from it in the CDRs of the light chain only.
VH: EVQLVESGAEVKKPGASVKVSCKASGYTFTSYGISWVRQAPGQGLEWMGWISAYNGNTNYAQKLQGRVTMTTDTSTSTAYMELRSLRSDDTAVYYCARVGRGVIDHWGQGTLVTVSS
VL: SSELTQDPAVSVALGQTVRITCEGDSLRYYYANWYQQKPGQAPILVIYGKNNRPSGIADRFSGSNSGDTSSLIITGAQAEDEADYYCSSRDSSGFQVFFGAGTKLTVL

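Phage display of a naive human antibody library on the peptide gave the parent. Library AAYL52 holds single substitutions and randomly drawn double and triple substitutions in the CDRs. The scFvs were displayed on barcoded MATa yeast, the peptide on MATalpha yeast. After mating in shaken culture at 30 °C for 16 h, diploids were selected and their barcode pairs sequenced. A regression on co-assayed BCL2-family reference pairs converts the normalised counts of each replicate to an apparent Kd. Mating was done three times.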

Positions count from residue 1 of the parent VL; N33L puts L in place of N.
Every variant below is changed at N33 of the VL (sequential numbering).
Scale: log10 of Kd in nM, estimated from mating counts; low values are strong binders.
A mean of the replicates is given; it leaves out those without a signal.
Where no diploid with the target was found in any replicate, the entry reads "nd": below detection, most likely a poor binder, though not proof of it.
Empty control strains, which show no peptide, gave a signal in 28% of pairings with library AAYL52; the median was 3.91 and 95% of these signals were weaker than 2.90. No background was subtracted.

| changes | mean log10 Kd (nM) | seen in |
|---|---|---|
| N33L/S88E/S93G | 4.62 | 1 of 3 |
| Y29K/A32Q/N33F | 4.01 | 1 of 3 |
| S26P/R28C/N33V | 4.28 | 2 of 3 |
| N33C/G49R/K50C | nd | 0 of 3 |
| Y29R/N33P/S93M | 4.10 | 1 of 3 |
| N33L/K50T/Q96W | nd | 0 of 3 |
| N33K | nd | 0 of 3 |
| L27H/Y31D/N33R | 4.35 | 1 of 3 |
| G24I/N33H/R90S | 3.87 | 2 of 3 |
| N33A/R53A | nd | 0 of 3 |
| N33L/P54G/G94R | nd | 0 of 3 |
| Y29P/N33Y/R90Y | 3.99 | 2 of 3 |
| N33P/G49L/P54G | 4.53 | 1 of 3 |
| Y31C/N33W/R90K | 4.52 | 1 of 3 |
| R28Q/N33K/P54D | 4.28 | 1 of 3 |
| N33I/S55H/S92K | 2.78 | 1 of 3 |
| G24S/Y31E/N33T | 2.97 | 1 of 3 |
| Y30M/N33V/S88G | 2.81 | 3 of 3 |
| N33Q/S88Q/D91S | 2.00 | 3 of 3 |
| G24R/N33W/G94K | 3.29 | 1 of 3 |
| N33H/S55V/S93K | 4.00 | 1 of 3 |
| N33E/K50M/N51I | 4.15 | 2 of 3 |
| Y30I/N33F/S89V | 3.85 | 1 of 3 |
| Y29W/N33G/V97D | 4.47 | 1 of 3 |
| N33T/N52E/S88D | nd | 0 of 3 |
| L27K/N33G/R90M | nd | 0 of 3 |
| N33G/R90G/Q96T | nd | 0 of 3 |
| Y29N/N33S/D91L | nd | 0 of 3 |
| L27N/N33G/F95Y | nd | 0 of 3 |
| D25Q/N33G/N51Q | nd | 0 of 3 |
| R28H/N33H/S93W | nd | 0 of 3 |
| Y31G/N33C/S93C | 3.84 | 2 of 3 |
| N33E/S55C/F95C | 3.67 | 3 of 3 |
| Y30F/N33M/G94E | 3.48 | 2 of 3 |
| N33L/G49T/S93I | nd | 0 of 3 |
| D25M/R28Q/N33L | 5.12 | 1 of 3 |
| G24L/S26C/N33K | 3.88 | 2 of 3 |
| N33S/G49M | 3.50 | 1 of 3 |
| A32W/N33I/G49W | 4.06 | 3 of 3 |
| N33W/R90N/F98D | 4.47 | 2 of 3 |
| N33R/R90Y/V97N | nd | 0 of 3 |
| Y31R/N33T/G94K | 3.43 | 1 of 3 |
| Y31T/N33I/R90P | 5.43 | 1 of 3 |
| E23Q/N33E/S89H | 3.72 | 2 of 3 |
| N33H/R90P | nd | 0 of 3 |
| D25L/N33I/R90H | 3.76 | 1 of 3 |
| N33M/R53N/P54T | 3.72 | 1 of 3 |
| N33P/K50V | nd | 0 of 3 |
| G24K/N33D/S88Q | 4.72 | 1 of 3 |
| D25V/N33H/K50F | nd | 0 of 3 |
| N33T/K50P/V97K | 2.19 | 3 of 3 |
| N33P/S89I/D91I | 4.12 | 1 of 3 |
| E23Y/N33P/S55F | 4.66 | 1 of 3 |
| E23P/N33D/K50S | nd | 0 of 3 |
| N33R/R90I/V97Q | nd | 0 of 3 |
| L27I/Y30L/N33W | 3.47 | 1 of 3 |
| A32T/N33F/F95T | nd | 0 of 3 |
| N33A/N51F/S55R | nd | 0 of 3 |
| G24I/N33A/R90M | 4.14 | 3 of 3 |
| N33E/S89C/Q96C | 3.35 | 1 of 3 |
| N33V/S93Y/F98T | nd | 0 of 3 |
| Y29G/N33M | 3.01 | 3 of 3 |
| S26Y/N33P/G94Q | 3.25 | 1 of 3 |
| N33W/P54M/S89P | nd | 0 of 3 |
| D25E/N33M | 5.19 | 2 of 3 |
| N33L/P54N/S92M | 3.75 | 3 of 3 |
| R28F/Y29C/N33Y | 4.69 | 1 of 3 |
| Y30E/N33K/R53L | 1.38 | 3 of 3 |
| N33C/S88A/Q96M | 3.53 | 2 of 3 |
| D25H/N33P/S92G | 3.79 | 3 of 3 |
| N33R/G49Q/S88P | 5.28 | 1 of 3 |
| N33F/G49T/S92W | 4.32 | 2 of 3 |
| Y29N/Y30S/N33P | nd | 0 of 3 |
| Y29S/N33R/S93G | 4.14 | 1 of 3 |
| G24Y/N33D/N51D | 3.17 | 1 of 3 |
| N33G/G94R | 4.16 | 3 of 3 |
| Y30E/N33M/S92N | 2.25 | 3 of 3 |

The opening 12 entries, copied out:

changes	mean log10 Kd (nM)	seen in
N33L/S88E/S93G	4.62	1 of 3
Y29K/A32Q/N33F	4.01	1 of 3
S26P/R28C/N33V	4.28	2 of 3
N33C/G49R/K50C	nd	0 of 3
Y29R/N33P/S93M	4.10	1 of 3
N33L/K50T/Q96W	nd	0 of 3
N33K	nd	0 of 3
L27H/Y31D/N33R	4.35	1 of 3
G24I/N33H/R90S	3.87	2 of 3
N33A/R53A	nd	0 of 3
N33L/P54G/G94R	nd	0 of 3
Y29P/N33Y/R90Y	3.99	2 of 3

Values reported by Engelhart et al. 2022, doi:10.1038/s41597-022-01779-4 (FLAb copy).